Source: ChEMBL document CHEMBL1158463 (J Med Chem, 2009)

Assays:
[1] = biological target: Kappa-type opioid receptor (Homo sapiens, UniProt P41145); assay: Displacement of [3H]U69593 from human cloned kappa opioid receptor expressed in CHO cells
Mu-type opioid receptor = Mu-type opioid receptor (Homo sapiens, UniProt P35372); assay: Displacement of [3H]diprenorphine from human cloned mu opioid receptor expressed in CHO cells
[2] = biological target: Delta-type opioid receptor (Homo sapiens, UniProt P41143); assay: Displacement of [3H]naltrindole from human cloned delta opioid receptor expressed in CHO cells
Nociceptin receptor [3] = biological target: T1, Nociceptin receptor (Homo sapiens, UniProt P41146); assay: Displacement of [125I]Tyr14-nociceptin from human cloned ORL1 receptor expressed in CHO cells
Nociceptin receptor [4] = biological target: T1, Nociceptin receptor; assay: Antagonist activity at human ORL1 receptor expressed in CHO cells by [35S]GTPgammaS binding assay

Row | Compound | IC50 [1] | IC50 (Mu-type opioid receptor) | IC50 [2] | IC50 (Nociceptin receptor [3]) | IC50 (Nociceptin receptor [4])
1 | O=c1n(C[C@@H](O)CO)c2ccccc2n1C1CCN(C[C@H]2[C@H]3CC[C@H](C3)C23CC3)CC1 | 10 µM | 4.5 µM | > 10 µM |  | 
2 | O=c1n(C[C@H](O)CO)c2ccccc2n1C1CCN(C[C@H]2[C@H]3CC[C@H](C3)C23CC3)CC1 | 6.8 µM | 2.7 µM | > 10 µM |  | 
3 | O=c1n(C(CO)CO)c2ccccc2n1C1CCN(C[C@H]2[C@H]3CC[C@H](C3)C23CC3)CC1 | 11 µM | 6.2 µM | > 10 µM | 0.0023 µM | 0.015 µM
